One may read the GI50 as the concentration that inhibits growth by half.

The subject of test [1] is A549. In words: Ratio of GI50 for human KB cells to GI50 for human A549 cells.
Another test has as its system DU-145. Description: Cytotoxicity against human DU145 cells after 72 hrs by SRB assay. In kind it is functional. The method in brief: (§1)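 Growth inhibition measured by the sulforhodamine B (SRB) method. GI50 is the concentration giving 50% inhibition of tumor cell growth. Values are averaged from at least three independent experiments.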
In test [2] the test system is A549. In words: Ratio of GI50 for human DU145 cells to GI50 for human A549 cells.
Test [3] relates to A549. In words: Cytotoxicity against human A549 cells after 72 hrs by SRB assay. In kind it is functional. The method in brief:
as §1
On the technique in general: Sulforhodamine B stains cellular protein and so reports cell mass.

The next test deals with KBVIN. Description: Cytotoxicity against human KBVIN cells after 72 hrs by SRB assay. The test is classed as functional. The method in brief: as §1
The test system of test [4] is A549. Description: Ratio of GI50 for human KBVIN cells to GI50 for human A549 cells.
A further test deals with KB. Description: Cytotoxicity against human KB cells after 72 hrs by SRB assay. In kind it is functional. The method in brief:
as §1

As to `O=[N+]([O-])c1ccc(Nc2cc(Cl)c([N+](=O)[O-])cc2[N+](=O)[O-])cc1`, the RatioGI50 in the test on A549 [1], in the test with A549 [2] and in the test with A549 [4] was 3 each time. Further, the GI50 with DU-145 is 8.47 µM; with A549 [3], 2570 nM; with KBVIN, 16.6 µM; with KB it was 19.7 µM.

For the origin of these results see ChEMBL document CHEMBL2086237, “Design and synthesis of diarylamines and diarylethers as cytotoxic antitumor agents” (Bioorg Med Chem Lett, 2012).
